Results as given in patent publication US20040024027A1 (priority 2000, published 2004).

Conditions: 40° C./75% Relative Humidity (RH), open exposure, 1 month, glass bottle

Solid state stability: HPLC assay	Solid state stability: degradation	Structure (SMILES)
97 % initial	No significant degradation observed	CN(CCOc1ccc(CC2SC(=O)NC2=O)cc1)c1ccccn1.I.O (stereo not shown) [Hydriodide Hydrate, 5-[4-[2-(N-Methyl-N-(2-pyridyl)amino)ethoxy]benzyl]thiazolidine-2,4-dione hydriodide hydrate]
97 % initial	No significant degradation observed	CN(CCOc1ccc(CC2SC(=O)NC2=O)cc1)c1ccccn1.I (stereo not shown) [Hydriodide, 5-[4-[2-(N-Methyl-N-(2-pyridyl)amino)ethoxy]benzyl]thiazolidine-2,4-dione Hydriodide]
